Measured affinities in a library of Ab-14 heavy chain variants

Antigen: PDVDLGDISGINAS, a 14-residue peptide of the SARS-CoV-2 spike HR2 region.

Each scFv is VH, a 15-residue (Gly4Ser)3 linker, VL, as in the parent Ab-14, and differs from it in the CDRs of the heavy chain only.
VH: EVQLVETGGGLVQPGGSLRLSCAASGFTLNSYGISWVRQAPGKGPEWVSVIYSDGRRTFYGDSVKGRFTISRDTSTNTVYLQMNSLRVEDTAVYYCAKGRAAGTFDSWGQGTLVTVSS
VL: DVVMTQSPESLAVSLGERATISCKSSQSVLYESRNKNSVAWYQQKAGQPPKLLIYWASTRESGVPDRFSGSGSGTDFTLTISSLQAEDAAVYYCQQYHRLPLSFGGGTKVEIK

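This is the validation round: designs drawn from the data on random variants, tested in the same kind of assay. Several design methods are mixed in this list. AlphaSeq pools MATa yeast showing the antibodies with MATalpha yeast showing the peptide. The frequency of each diploid, read from paired DNA barcodes, reflects how well the two displayed proteins bind. A regression on co-assayed BCL2-family reference pairs converts the normalised counts of each replicate to an apparent Kd. Mating was done six times.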

Variants are written as CDR1, CDR2 and CDR3 of the heavy chain (limits as in the source). Parent: GFTLNSYGIS, VIYSDGRRTFYGDSVK, GRAAGTFDS.
The Kd shown is the geometric mean over detected replicates; a lower Kd is a better binder.
An entry "nd" has no value in the source: the pair was not observed among the diploids in any replicate. This suggests poor binding but is not conclusive.

Kd | detected | empty controls | CDR-H1 | CDR-H2 | CDR-H3
540 pM | 6 of 6 | 0 of 18 | GFSLNSYGIS | VIYSDGRRTFYGDSVK | GMEAGTFDS
nd | 0 of 6 | 0 of 18 | GFTLNEYGIS | VIYSDGRRTEYGESVK | GRAAVTFDQ
190 pM | 6 of 6 | 0 of 18 | GFDIDEYGIS | VIYADGMRTFYTDSVK | GEVAGTFDA
nd | 0 of 6 | 0 of 18 | GFTVNSYGIS | VIYSDGRRTSYADSVK | GRAAVTFDQ
nd | 0 of 6 | 3 of 18 | GFDIQEYGIS | VIYADGERRAYADKVK | GTHGGTRDI
240 pM | 6 of 6 | 0 of 18 | GFDLNEYGIS | VIYADGRRTFYSDSVK | GNVAGTFDM
2.1 nM | 6 of 6 | 0 of 18 | GFTLNEYGIS | VIYSDGHRTFYGDSVK | GREALTFDL
nd | 0 of 6 | 1 of 18 | GFQLNSYGIS | VIYSDGRRTFYIDSVK | GRMAGTFDS
nd | 0 of 6 | 0 of 18 | GFDLSEYGIS | VIYADGRRAYYTDAVK | GEVEGMLMV
350 pM | 6 of 6 | 0 of 18 | GFDLDEYGIS | VIYADGMRTAYSDSVK | GGNAGTFDV
84 nM | 1 of 6 | 0 of 18 | GFDLEKYGIS | VIYADGIRKEYDQSVK | GQMAGAFTV
410 pM | 6 of 6 | 0 of 18 | GFDLNEYGIS | VIYADGRRTAYTDSVK | GEAAGTFDQ
4.7 nM | 6 of 6 | 0 of 18 | GFDLDEYGIS | VIYADGMRTAYADNVK | GNNAGTFDV
34 nM | 4 of 6 | 0 of 18 | GFSLNSYGIS | VIYSDGRRTFYSDSVK | GMAGGTFDS
160 pM | 6 of 6 | 1 of 18 | GFDLNEYGIS | VIYADGMRTAYSDSVK | GEVAGTFDQ
320 pM | 6 of 6 | 0 of 18 | GFDLNEYGIS | VIYADGVRTFYTDSVK | GETAGTFDS
nd | 0 of 6 | 0 of 18 | GFTLEEYGIS | VIYSDGRRTFYGDSVK | GRAAGTFDE
9.6 nM | 6 of 6 | 0 of 18 | GFTLNSYGIS | VIYSDGRRTFYSDSVK | GNAGGTFDT
170 pM | 6 of 6 | 0 of 18 | GFDLNEYGIS | VIYADGMRTAYSDSVK | GTVAGTFDV
710 pM | 6 of 6 | 1 of 18 | GFSLNEYGIS | VIYSDGRRTFYGDSVK | GQAAGTFDK
nd | 0 of 6 | 0 of 18 | GFTLNSYGIS | VIYSDGRRTFYGDSVS | GRAAGTFDV
4.6 nM | 6 of 6 | 0 of 18 | GFQLNEYGIS | VIYSDGRRTFYQDSVK | GKAAGTFDS
53 nM | 1 of 6 | 0 of 18 | GFDLNSYGIS | VIYYNGQRTFEGDSVK | GTAAGWFNS
1.8 nM | 6 of 6 | 0 of 18 | GFDLNEYGIS | VIYADGKRTFYSDSVK | GNLGGTFDV
1.2 nM | 6 of 6 | 0 of 18 | GFALNEYGIS | VIYSDGRRTFYGDSVK | GRTAGTFDS
25 nM | 3 of 6 | 0 of 18 | GFTLNSYGIS | VIYSDGRRTFYLDSVK | GRAAFTFDS
6.1 nM | 6 of 6 | 0 of 18 | GFELNSYGIS | VIYSDGKRTFYSDSVK | GQAAGTFDS
600 pM | 6 of 6 | 1 of 18 | GFDLDEYGIS | VIYADGMRTAYSDSVK | GNEAGTFDM
5.1 nM | 6 of 6 | 3 of 18 | GFDLNSYGIS | VIYSDGRRTFYQDSVK | GEAAGTFDS
nd | 0 of 6 | 0 of 18 | GVTLNSIGIS | VIYADGRRTFYVDIVK | GRAAGTNKS
14 nM | 2 of 6 | 1 of 18 | GFTLNMYGIS | VIYSDGRRTFYGDSVK | GRASGTSDS
270 pM | 6 of 6 | 0 of 18 | GFDLDEYGIS | VIYADGMRTFYADSVK | GNIAGTFDK
370 pM | 6 of 6 | 0 of 18 | GFDLNEYGIS | VIYADGRRTAYADDVK | GNNAGTFDQ
1.0 nM | 6 of 6 | 0 of 18 | GFSLNSYGIS | VIYSDGRRTFYADSVK | GQEAGTFDS
nd | 0 of 6 | 0 of 18 | GFNLDEYGIS | VIYADGTRRYYADSVK | GDEVVVNSI
3.6 nM | 6 of 6 | 0 of 18 | GFDLNEYGIS | VIYADGRRTFYADSVK | GQSAGTFTL
nd | 0 of 6 | 0 of 18 | GDTLNSYGIS | VIYSDGMRTAYGDSVK | GKRIGTFDS
590 pM | 6 of 6 | 0 of 18 | GFSLDEYGIS | VIYADGRRTFYADSVK | GNVAGTFDF
850 pM | 6 of 6 | 1 of 18 | GFTLNSYGIS | VIYADGRRTFYGDSVK | GTAAGTFDK
6.1 nM | 4 of 6 | 0 of 18 | GFALNSYGIS | VIYADGMRTFYGNDVK | GRAAGTFDS
13 nM | 5 of 6 | 0 of 18 | GFPLNSYGIS | VIYSDGRRTFYDDSVK | GQAAGTFDS
nd | 0 of 6 | 0 of 18 | GFGLDEFGIS | VIYADGQRTAYLNSFK | GENSNAVDT
nd | 0 of 6 | 0 of 18 | GFTLSSYGIS | VIYSDGRRTFYGDSVK | GRAALTFDS
nd | 0 of 6 | 0 of 18 | GFTLNSYGIS | VIYSDGRRTFYSDSVK | GEAVGTFDS
27 nM | 6 of 6 | 0 of 18 | GFTLNSYGIS | VIYSDGKRTFYDDNVK | GQLAGTFDS
6.3 nM | 6 of 6 | 2 of 18 | GFDLNSYGIS | VIYSDGRRTFYKDSVK | GKAAGTFDS
nd | 0 of 6 | 0 of 18 | GFTLNSYGIS | VIYSDGRRTFYGDSVK | GLAAGTFDS
nd | 0 of 6 | 0 of 18 | GFTVNEYGIS | VIYSDGRRTFYTDSVK | GGFAGTFDS
6.7 nM | 6 of 6 | 0 of 18 | GFSLNSYGIS | VIYSDGRRTFYIDSVK | GQTAGTFDS
440 pM | 6 of 6 | 0 of 18 | GFSLNEYGIS | VIYSDGRRTMYSDSVK | GRTAGTFDS

Picked from the list: the 7 lowest averages where every replicate gave a value.

CDR-H1,CDR-H2,CDR-H3,Kd,detected,empty controls
GFDLNEYGIS,VIYADGMRTAYSDSVK,GEVAGTFDQ,160 pM,6 of 6,1 of 18
GFDLNEYGIS,VIYADGMRTAYSDSVK,GTVAGTFDV,170 pM,6 of 6,0 of 18
GFDIDEYGIS,VIYADGMRTFYTDSVK,GEVAGTFDA,190 pM,6 of 6,0 of 18
GFDLNEYGIS,VIYADGRRTFYSDSVK,GNVAGTFDM,240 pM,6 of 6,0 of 18
GFDLDEYGIS,VIYADGMRTFYADSVK,GNIAGTFDK,270 pM,6 of 6,0 of 18
GFDLNEYGIS,VIYADGVRTFYTDSVK,GETAGTFDS,320 pM,6 of 6,0 of 18
GFDLDEYGIS,VIYADGMRTAYSDSVK,GGNAGTFDV,350 pM,6 of 6,0 of 18

As a blank, each scFv also met three strains without target: over all heavy chain designs, 1% of these pairings were detected, typically at 120 nM and seldom below 7.0 nM. The control count says in how many pairings with the empty strains this scFv gave a signal.
Of ten entries with the parent sequence, four were seen in most replicates (averages 2.2 nM to 240 nM), three in one and three in none, so single entries are noisy.
A sequence measured in both rounds can read differently, since the two assays cover different ranges.
The authors averaged sequences with at least three values out of six and counted those with two or fewer as poor binders.

Data: MIT Lincoln Laboratory AlphaSeq set, Li et al. 2023, doi:10.1038/s41467-023-39022-2, as distributed in FLAb.